scFv variants of Ab-14 (heavy chain) against a SARS-CoV-2 spike peptide

Values reported by Engelhart et al. 2022, doi:10.1038/s41597-022-01779-4 (FLAb copy).

Antigen: PDVDLGDISGINAS, a 14-residue peptide of the SARS-CoV-2 spike HR2 region.

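The starting antibody came from a phage panning campaign against this peptide. The library (AAYL49) carries one to three amino acid substitutions per variant, with no insertions or deletions. The scFvs were displayed on barcoded MATa yeast, the peptide on MATalpha yeast. After mating in shaken culture at 30 °C for 16 h, diploids were selected and their barcode pairs sequenced. Scores were corrected for input abundance and mapped to Kd with protein pairs of known affinity run in the same pool. The assay was run in three technical replicates.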

Each scFv is VH, the linker GGGGSGGGGSGGGGS, VL, as in the parent Ab-14, and differs from it in the CDRs of the heavy chain only.
VH: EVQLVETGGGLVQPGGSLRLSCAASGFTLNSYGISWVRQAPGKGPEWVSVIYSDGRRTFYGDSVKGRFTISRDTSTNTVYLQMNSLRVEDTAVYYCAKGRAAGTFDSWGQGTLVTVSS
VL: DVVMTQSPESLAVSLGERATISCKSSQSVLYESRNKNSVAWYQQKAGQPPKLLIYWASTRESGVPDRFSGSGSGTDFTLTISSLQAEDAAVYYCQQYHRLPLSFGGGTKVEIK

Substitutions are numbered in sequence along the VH above, starting at 1 (not Kabat).
This list gathers variants with a substitution at G55 (VH, numbered from residue 1).
Values are apparent Kd, the geometric mean of the replicates that gave a signal; lower means stronger binding.
An entry "nd" has no value in the source: the pair was not observed among the diploids in any replicate. This suggests poor binding but is not conclusive.

Variant T28M/G55N/R56H showed 1.9 µM (1 of 3 replicates).
Variant G33H/G55C/K65P showed 27 µM (1 of 3 replicates).
Variant G55S/V64R/F105S showed nd (0 of 3 replicates).
Variant F27W/T28W/G55E showed nd (0 of 3 replicates).
Variant G55W/K65N/D106Y showed nd (0 of 3 replicates).
Variant G55A/A101Y/G103C showed 23 µM (3 of 3 replicates).
Variant G55E/A101T showed 8.0 µM (2 of 3 replicates).
Variant I51K/G55Q/F105K showed nd (0 of 3 replicates).
Variant G55S/K65Y/S107G showed 11 µM (1 of 3 replicates).
Variant Y32A/G55W/S107N showed 39 µM (2 of 3 replicates).
Variant L29A/G55Q/R100M showed 68 µM (2 of 3 replicates).
Variant F27C/G55D/F59P showed nd (0 of 3 replicates).
Variant G33D/G55A/S107M showed nd (0 of 3 replicates).
Variant G26N/G55L/R57A showed nd (0 of 3 replicates).
Variant S31K/G55R/K65N showed nd (0 of 3 replicates).
Variant S31F/G55V/F59P showed nd (0 of 3 replicates).
Variant T28Y/G55H/A101W showed nd (0 of 3 replicates).
Variant S53C/G55A/D106L showed 32 µM (2 of 3 replicates).
Variant N30K/G55L/R56I showed 17 µM (2 of 3 replicates).
Variant I51P/Y52D/G55N showed 1.6 µM (1 of 3 replicates).
Variant S53D/G55M/G103N showed nd (0 of 3 replicates).
Variant G55Q/R57E/T58Q showed nd (0 of 3 replicates).
Variant S53A/G55S/R56W showed nd (0 of 3 replicates).
Variant G33A/G55W/R57W showed nd (0 of 3 replicates).
Variant G55Y/K65N/F105T showed nd (0 of 3 replicates).
Variant G55K/D62F/K65E showed nd (0 of 3 replicates).
Variant G26L/G55D/V64P showed nd (0 of 3 replicates).
Variant N30M/V50W/G55K showed 30 µM (1 of 3 replicates).
Variant S53C/G55T/D62G showed nd (0 of 3 replicates).
Variant S31H/G55F/T104G showed nd (0 of 3 replicates).
Variant G55M/D62N/A101R showed 1.6 µM (1 of 3 replicates).
Variant I51L/D54L/G55I showed 12 µM (1 of 3 replicates).
Variant G55T/D62W/S107K showed nd (0 of 3 replicates).
Variant L29I/S53I/G55W showed 7.0 µM (1 of 3 replicates).
Variant I51W/G55V/R100V showed nd (0 of 3 replicates).
Variant G55D/R56D/S107W showed nd (0 of 3 replicates).
Variant N30C/G55H/G99F showed nd (0 of 3 replicates).
Variant G55R/F59Y/A101S showed nd (0 of 3 replicates).
Variant V50R/G55E/G61W showed 4.9 µM (1 of 3 replicates).
Variant Y52W/G55E/G61I showed 13 µM (2 of 3 replicates).
Variant Y52R/G55L/R100W showed nd (0 of 3 replicates).
Variant G55T/A101L showed nd (0 of 3 replicates).
Variant S31D/G55I/F105L showed 14 µM (2 of 3 replicates).
Variant G55T showed 240 µM (2 of 3 replicates).
Variant G55A/Y60C/A102R showed nd (0 of 3 replicates).
Variant Y32V/G55P/T58D showed nd (0 of 3 replicates).
Variant G55C/K65D/A102V showed nd (0 of 3 replicates).
Variant D54S/G55C/R100D showed nd (0 of 3 replicates).
Variant G55Q/R100M/F105M showed nd (0 of 3 replicates).

From the list, the first 4 with no signal in any replicate:

| changes | Kd (apparent) | replicates with signal |
|---|---|---|
| G55S/V64R/F105S | nd | 0 of 3 |
| F27W/T28W/G55E | nd | 0 of 3 |
| G55W/K65N/D106Y | nd | 0 of 3 |
| I51K/G55Q/F105K | nd | 0 of 3 |

For reference, the parent read 4.4 nM as the reference entry and 13 µM (one replicate of three) as a member of this library.
Three control strains display no target. For library AAYL49, 15% of the pairings with them gave a signal, with a median of 11 µM and one signal in twenty below 680 nM, so weak values seen in few replicates may be background.